Measured values published in US5563176A (priority 1994, dated 1996).

What was measured:
solid tumor systems = conditions: NCI DCT; cited from earlier work
CEM mdr variants = experiment: resistance of CEM mdr variants; conditions: previous studies

## CC1=C2C(=CC(C)(C)C2O)C(=O)[C@](C)(O)C12CC2 (some centres unmarked) [Illudin M, reference compound]
Solid tumor systems
  therapeutic index: low therapeutic index

## CC1=C2C(=C[C@@](C)(CO)C2O)C(=O)[C@](C)(O)C12CC2 (some centres unmarked) [Illudin S]
CEM mdr variants
  resistance of CEM mdr variants: not resistant
